Consider one compound from the NIST ThermoML archive (doi:10.1016/j.fluid.2018.05.011).

Numbers after ± are expanded uncertainties.

The conditions of the series: Liquid; Resistive pulse heating.

For the compound `OCCOCCOCCOCCO` [tetraethylene glycol], the Critical pressure is reported as 2710 ± 110 kPa and the Critical temperature is 814 ± 12 K.
